Sequences of proteins named here, by UniProt entry; tags and fusion partners are left off. Residues count along the entry.
UniProt Q63380, 1-617: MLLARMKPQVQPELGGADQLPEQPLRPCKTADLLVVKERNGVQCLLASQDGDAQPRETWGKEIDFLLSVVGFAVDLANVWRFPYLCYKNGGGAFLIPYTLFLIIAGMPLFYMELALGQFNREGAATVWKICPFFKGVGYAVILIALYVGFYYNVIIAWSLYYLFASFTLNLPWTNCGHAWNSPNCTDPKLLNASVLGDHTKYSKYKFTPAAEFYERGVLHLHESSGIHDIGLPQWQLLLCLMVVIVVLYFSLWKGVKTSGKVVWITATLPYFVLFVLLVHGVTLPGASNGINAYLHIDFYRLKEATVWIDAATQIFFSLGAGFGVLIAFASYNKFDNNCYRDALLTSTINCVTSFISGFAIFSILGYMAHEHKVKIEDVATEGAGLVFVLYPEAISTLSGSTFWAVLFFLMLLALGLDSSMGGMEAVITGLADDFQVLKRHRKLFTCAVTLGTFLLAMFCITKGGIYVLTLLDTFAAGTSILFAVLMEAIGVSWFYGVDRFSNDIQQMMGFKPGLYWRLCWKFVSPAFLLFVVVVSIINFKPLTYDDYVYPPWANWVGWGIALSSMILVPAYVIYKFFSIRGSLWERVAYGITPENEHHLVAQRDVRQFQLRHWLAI

In patent US10000450B2, “N,N-substituted 3-aminopyrrolidine compounds useful as monoamines reuptake inhibitors” (OTSUKA PHARMACEUTICAL CO., LTD., priority 2005, dated 2018):

Biological target: Norepinephrine (NE) uptake into rat brain synaptosome (hippocampus) (Rattus norvegicus, UniProt Q63380)
Experiment: Inhibitory activity on norepinephrine (NE) uptake into rat brain synaptosome
Details: read-out: 50% inhibitory concentration, tritium-labeled NE 12 nM uptake, 10 min at 37° C., tested form: HCl
Protocol: Pharmacological Test 2 Evaluation of Inhibitory Activity of Test Compound on Norepinephrine (NE) Uptake into Rat Brain Synaptosome
Male Wistar rats were decapitated and the brains were removed and the hippocampi were dissected. The separated hippocampi were homogenized in 20 volumes as weight of 0.32 M sucrose solution by a Potter-type homogenizer. The homogenate was centrifuged at 1000 g at 4° C. for 10 minutes, and the supernatant was then centrifuged at 20000 g at 4° C. for 20 minutes. The pellet was resuspended in incubation buffer (20 mM HEPES buffer (pH 7.4)) containing 10 mM glucose, 145 mM sodium chloride, 4.5 mM potassium chloride, 1.2 mM magnesium chloride, and 1.5 mM calcium chloride) and used as crude synaptosome fraction. […]
Solvent, unlabeled NE, and serial diluted test compounds were added to each well, and synaptosome fraction of 1/10 volume of the final volume were added. […] After washing the filter with cold physiological saline and drying up, Microscint-0 (Perkin-Elmer) was added, and remained radioactivity on the filter was measured.
The total uptake activity with only solvent was determined as 100%, and the nonspecific uptake activity with unlabeled NE (final concentration of 10 μM) was determined as 0%. The 50% inhibitory concentrations were calculated based on the concentrations of the test compounds and their inhibitory activities.

SMILES: Fc1ccc(N(CC2CCOCC2)[C@H]2CCNC2)cc1Cl
- IC50: 500 pM
